Biological target: T1, Duffy Antigen Receptor for Chemokines (DARC) (Homo sapiens, UniProt Q16570)
T1 sequence (Q16570 1-336): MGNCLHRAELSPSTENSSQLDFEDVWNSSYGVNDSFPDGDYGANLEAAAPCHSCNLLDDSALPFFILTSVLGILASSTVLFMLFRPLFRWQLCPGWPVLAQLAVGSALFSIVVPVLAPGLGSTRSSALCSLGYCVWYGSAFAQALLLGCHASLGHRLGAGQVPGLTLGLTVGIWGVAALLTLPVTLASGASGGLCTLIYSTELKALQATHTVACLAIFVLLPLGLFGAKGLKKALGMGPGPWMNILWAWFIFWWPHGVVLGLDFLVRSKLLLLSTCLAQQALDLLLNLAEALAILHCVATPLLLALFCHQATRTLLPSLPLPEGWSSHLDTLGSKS
Assay: DARC binding: competition with 125I-labeled MCP-1 on red blood cells
Conditions: Table 7; estimated ka for binding to red blood cells divided by average inhibitory ED50 versus each of the chemokines

## NCCCC[C@H](NC(=O)[C@H](CCC(N)=O)NC(=O)[C@@H](N)CCCCN)C(=O)O [KQK]
  DUFFY SELECTIVITY: 22.34

Reference: patent US6989435B2, “Compounds and methods to inhibit or augment an inflammatory response” (Cambridge University Technical Services Ltd., priority 1997, dated 2006)
